Assay results reported in US20160375033A1, “METHODS OF TREATMENT WITH TASELISIB” (Genentech, Inc., priority 2015, published 2016).

Chains of the proteins cited; added tags and fusions are not shown. Lines headed by an entry give the natural chain unless they say otherwise; changes in a name come on top.
UniProt P42336, whole entry H1047R: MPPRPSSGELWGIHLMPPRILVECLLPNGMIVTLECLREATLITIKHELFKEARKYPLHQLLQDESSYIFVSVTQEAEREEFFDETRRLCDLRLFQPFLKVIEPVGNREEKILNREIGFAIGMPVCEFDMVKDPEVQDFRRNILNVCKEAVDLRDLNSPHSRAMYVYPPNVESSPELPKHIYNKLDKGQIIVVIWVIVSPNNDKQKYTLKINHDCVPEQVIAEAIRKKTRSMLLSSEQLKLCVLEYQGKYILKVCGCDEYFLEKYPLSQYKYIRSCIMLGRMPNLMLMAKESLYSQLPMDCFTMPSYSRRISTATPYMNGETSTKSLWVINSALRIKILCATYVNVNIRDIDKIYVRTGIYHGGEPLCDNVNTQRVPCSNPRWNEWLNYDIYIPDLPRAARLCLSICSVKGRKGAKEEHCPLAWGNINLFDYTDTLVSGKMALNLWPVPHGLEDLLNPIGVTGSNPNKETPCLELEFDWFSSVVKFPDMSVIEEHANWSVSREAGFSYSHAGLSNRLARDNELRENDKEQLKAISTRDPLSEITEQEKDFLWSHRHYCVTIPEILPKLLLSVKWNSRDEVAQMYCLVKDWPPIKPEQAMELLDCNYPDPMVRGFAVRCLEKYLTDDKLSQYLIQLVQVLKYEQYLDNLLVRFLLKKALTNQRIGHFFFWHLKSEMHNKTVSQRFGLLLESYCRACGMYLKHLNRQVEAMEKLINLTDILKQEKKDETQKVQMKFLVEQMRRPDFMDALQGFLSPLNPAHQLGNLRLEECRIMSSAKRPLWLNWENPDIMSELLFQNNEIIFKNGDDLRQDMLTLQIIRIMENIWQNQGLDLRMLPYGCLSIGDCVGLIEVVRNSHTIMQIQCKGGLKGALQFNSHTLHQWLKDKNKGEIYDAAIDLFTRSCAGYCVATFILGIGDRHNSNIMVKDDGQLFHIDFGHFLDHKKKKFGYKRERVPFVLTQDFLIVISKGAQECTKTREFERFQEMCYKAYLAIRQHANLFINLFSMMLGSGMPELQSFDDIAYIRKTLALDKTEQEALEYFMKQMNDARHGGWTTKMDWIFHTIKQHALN
UniProt P42336, whole entry E545K: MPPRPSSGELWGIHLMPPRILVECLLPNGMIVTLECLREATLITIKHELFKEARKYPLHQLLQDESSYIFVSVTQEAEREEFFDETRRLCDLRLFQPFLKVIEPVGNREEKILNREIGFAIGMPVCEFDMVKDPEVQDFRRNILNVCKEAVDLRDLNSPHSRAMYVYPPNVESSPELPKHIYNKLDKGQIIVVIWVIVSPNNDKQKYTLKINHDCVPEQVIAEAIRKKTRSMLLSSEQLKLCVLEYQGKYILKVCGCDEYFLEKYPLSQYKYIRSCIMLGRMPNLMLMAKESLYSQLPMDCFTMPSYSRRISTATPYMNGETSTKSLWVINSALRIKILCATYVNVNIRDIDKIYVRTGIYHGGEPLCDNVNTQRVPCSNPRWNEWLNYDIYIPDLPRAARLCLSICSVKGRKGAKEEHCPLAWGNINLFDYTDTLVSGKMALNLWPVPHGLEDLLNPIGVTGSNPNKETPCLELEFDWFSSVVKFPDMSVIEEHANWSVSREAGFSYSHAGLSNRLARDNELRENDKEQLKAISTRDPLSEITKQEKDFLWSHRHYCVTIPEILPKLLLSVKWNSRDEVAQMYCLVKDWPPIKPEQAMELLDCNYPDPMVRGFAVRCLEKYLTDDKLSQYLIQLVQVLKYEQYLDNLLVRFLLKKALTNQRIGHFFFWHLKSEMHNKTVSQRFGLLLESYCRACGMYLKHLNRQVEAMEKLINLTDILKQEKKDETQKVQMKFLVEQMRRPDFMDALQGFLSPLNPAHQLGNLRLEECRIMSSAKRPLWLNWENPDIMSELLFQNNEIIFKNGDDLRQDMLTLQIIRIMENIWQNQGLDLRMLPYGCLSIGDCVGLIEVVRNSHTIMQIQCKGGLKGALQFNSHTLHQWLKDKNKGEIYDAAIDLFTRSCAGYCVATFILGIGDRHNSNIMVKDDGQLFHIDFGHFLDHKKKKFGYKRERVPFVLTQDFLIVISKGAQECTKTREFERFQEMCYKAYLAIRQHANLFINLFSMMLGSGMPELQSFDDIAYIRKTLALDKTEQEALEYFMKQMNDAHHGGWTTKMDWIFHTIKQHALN
UniProt P42336, whole entry: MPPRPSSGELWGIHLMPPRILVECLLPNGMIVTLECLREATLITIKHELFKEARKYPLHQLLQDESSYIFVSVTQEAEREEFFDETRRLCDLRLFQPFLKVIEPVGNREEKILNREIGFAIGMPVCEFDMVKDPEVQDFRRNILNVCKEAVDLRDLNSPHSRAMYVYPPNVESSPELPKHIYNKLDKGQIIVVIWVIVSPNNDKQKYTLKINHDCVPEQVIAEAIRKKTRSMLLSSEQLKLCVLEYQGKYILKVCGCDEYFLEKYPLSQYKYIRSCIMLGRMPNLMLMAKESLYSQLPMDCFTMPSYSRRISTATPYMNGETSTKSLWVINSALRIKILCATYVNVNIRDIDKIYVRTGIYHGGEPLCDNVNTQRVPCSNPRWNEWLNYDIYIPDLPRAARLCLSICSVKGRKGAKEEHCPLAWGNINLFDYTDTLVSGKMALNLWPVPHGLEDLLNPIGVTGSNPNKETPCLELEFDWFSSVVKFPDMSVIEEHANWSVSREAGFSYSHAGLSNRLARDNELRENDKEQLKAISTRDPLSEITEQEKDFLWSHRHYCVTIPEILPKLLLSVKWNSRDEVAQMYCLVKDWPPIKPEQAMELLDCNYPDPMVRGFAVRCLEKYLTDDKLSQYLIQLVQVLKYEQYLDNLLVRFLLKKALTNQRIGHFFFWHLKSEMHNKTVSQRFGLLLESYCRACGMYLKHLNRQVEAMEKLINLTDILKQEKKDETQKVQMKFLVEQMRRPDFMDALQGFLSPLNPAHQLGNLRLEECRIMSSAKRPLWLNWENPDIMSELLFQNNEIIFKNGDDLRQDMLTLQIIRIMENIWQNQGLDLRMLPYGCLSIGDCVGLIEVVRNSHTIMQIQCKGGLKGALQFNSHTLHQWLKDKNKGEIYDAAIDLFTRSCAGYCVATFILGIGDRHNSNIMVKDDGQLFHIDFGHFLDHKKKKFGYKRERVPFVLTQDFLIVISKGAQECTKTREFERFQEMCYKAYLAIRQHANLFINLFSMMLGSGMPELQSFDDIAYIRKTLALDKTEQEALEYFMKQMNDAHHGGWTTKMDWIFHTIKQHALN
UniProt O00329: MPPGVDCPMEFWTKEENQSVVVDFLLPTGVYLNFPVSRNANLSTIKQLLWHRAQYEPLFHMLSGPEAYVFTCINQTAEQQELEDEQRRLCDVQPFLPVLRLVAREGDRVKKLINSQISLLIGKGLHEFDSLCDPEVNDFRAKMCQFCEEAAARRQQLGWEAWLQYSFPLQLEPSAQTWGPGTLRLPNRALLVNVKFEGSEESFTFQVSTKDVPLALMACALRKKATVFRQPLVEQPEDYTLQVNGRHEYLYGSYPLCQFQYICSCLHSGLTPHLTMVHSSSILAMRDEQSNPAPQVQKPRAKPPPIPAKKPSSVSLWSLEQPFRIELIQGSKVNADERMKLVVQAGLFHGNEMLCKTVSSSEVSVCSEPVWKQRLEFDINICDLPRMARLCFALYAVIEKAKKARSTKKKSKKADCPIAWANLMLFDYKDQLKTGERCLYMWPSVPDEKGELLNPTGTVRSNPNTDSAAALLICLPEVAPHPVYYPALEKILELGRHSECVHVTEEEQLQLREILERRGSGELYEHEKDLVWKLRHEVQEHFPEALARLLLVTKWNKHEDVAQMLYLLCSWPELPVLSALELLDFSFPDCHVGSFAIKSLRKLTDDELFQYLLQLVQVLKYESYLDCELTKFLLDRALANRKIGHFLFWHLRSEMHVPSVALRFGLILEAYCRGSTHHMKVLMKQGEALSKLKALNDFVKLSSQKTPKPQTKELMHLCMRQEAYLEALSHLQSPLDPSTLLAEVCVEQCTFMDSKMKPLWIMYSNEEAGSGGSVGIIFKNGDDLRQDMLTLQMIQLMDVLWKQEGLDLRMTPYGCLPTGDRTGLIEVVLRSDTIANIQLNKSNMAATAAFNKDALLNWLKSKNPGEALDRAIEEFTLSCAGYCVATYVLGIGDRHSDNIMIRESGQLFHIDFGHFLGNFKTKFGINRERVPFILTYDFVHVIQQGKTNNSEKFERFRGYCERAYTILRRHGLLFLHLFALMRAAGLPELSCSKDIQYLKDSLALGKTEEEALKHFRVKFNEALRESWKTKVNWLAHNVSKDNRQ

Legend:
mut-p110αH1047R = mut-p110αH1047R (Homo sapiens, UniProt P42336, H1047R); experiment: PI3K binding assay (Ki), mutant p110 alpha H1047R
mut-p110αE545K = mut-p110αE545K (Homo sapiens, UniProt P42336, E545K); experiment: PI3K binding assay (Ki), mutant p110 alpha E545K
PI3K δ = PI3K δ (Homo sapiens, UniProt O00329); experiment: PI3K binding assay (Ki), PI3K delta
PI3K alpha = PI3K alpha (Homo sapiens, UniProt P42336); conditions: cited from earlier work

Structure (SMILES): Cc1nc(-c2cn3c(n2)-c2ccc(-c4cnn(C(C)(C)C(N)=O)c4)cc2OCC3)n(C(C)C)n1 [GDC-0032, 2-(4-(2-(1-isopropyl-3-methyl-1H-1,2,4-triazol-5-yl)-5,6-dihydrobenzo[f]imidazo[1,2-d][1,4]oxazepin-9-yl)-1H-pyrazol-1-yl)-2-methylpropanamide]
- Ki (mut-p110αH1047R): 0.11 nM
- Ki (mut-p110αE545K): 0.14 nM
- Ki (PI3K δ): 0.092 nM
- Ki (PI3K alpha): 0.2 nM
